Assay results reported in paper PMC7273348, “Unraveling a Tangled Skein: Evolutionary Analysis of the Bacterial Gibberellin Biosynthetic Operon” (mSphere, 2020).

Molecular target: T1, ReIDS2 (ReGGPS2) (Rhizobium etli, UniProt Q8KLD2)
T1 construct: gene RHE_PD00244; full-length ORF in pET101/D-TOPO, C-terminal 6xHis tag, E. coli BL21 Star
T1 sequence (Q8KLD2 1-309): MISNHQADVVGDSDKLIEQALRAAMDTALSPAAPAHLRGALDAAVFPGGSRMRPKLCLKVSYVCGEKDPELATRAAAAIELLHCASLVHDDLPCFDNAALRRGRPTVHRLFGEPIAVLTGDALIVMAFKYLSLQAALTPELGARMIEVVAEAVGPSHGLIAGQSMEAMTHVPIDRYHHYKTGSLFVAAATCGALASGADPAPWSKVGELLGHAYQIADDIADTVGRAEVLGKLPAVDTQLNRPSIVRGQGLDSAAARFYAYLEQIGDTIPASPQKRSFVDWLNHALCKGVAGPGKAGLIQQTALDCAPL
Assay: LC-MS/MS detection of GGPP product
Assay type: biochemical
Conditions: 50 uM IPP + 50 uM DMAPP; MOPSO pH 7.2, 10 mM MgCl2; 30 C, 2 h; main product GGPP

## C=C(C)CCOP(=O)(O)OP(=O)(O)O [IPP]
  LC-MS/MS detection of GGPP product: produced GGPP as its major product from the universal isoprenoid precursors IPP and DMAPP
